The target of the assay is TSPO (Homo sapiens, UniProt P30536, T147A). Particulars: read-out: High Affinity Site; human platelet membranes of high affinity donors; 5 nM [3H]PK11195; 37° C.; resolved enantiomers.

Chains of the proteins cited; added tags and fusions are not shown. Residues count along the entry.
UniProt P30536, 2-169 T147A: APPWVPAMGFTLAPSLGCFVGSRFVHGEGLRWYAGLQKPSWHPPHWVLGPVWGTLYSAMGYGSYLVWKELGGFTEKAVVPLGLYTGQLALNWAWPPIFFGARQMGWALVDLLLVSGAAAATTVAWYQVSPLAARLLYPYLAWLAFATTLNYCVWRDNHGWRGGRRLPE

On to `CCC(C)N(C)C(=O)c1cc2ccccc2c(-c2ccccc2Cl)n1` (stereo not shown) [PK11195], for which the Ki turned out to be 4 nM.

(Values after US20160222024A1, “S-ENANTIOMER OF TETRACYCLIC INDOLE DERIVATIVE AS PBR LIGANDS” (priority 2013, published 2016).)
